Data taken from article PMC6274077, “In Vitro Study on Anti-Hepatitis C Virus Activity of Spatholobus suberectus Dunn” (Molecules, 2016).

Test system: HCV genotype 1b (Con1) replicon
Assay: Anti-HCV luciferase reporter assay on Huh-luc/neo-ET replicon cells
Settings: 72 h treatment

Substance: IFNα-2a: IFNα-2A purchased from Genscript, approved anti-HCV therapy
- Anti-HCV Activity (EC50): 7.6e-07 ± 1.15e-07 ng/mL
